This is an account of results in US20090326007A1, “Compounds and methods for modulating sir2 protein activity” (priority 2007, published 2009).

Sequences of proteins named here, by UniProt entry; tags and fusion partners are left off. Residues count along the entry.
UniProt P53686, 1-294: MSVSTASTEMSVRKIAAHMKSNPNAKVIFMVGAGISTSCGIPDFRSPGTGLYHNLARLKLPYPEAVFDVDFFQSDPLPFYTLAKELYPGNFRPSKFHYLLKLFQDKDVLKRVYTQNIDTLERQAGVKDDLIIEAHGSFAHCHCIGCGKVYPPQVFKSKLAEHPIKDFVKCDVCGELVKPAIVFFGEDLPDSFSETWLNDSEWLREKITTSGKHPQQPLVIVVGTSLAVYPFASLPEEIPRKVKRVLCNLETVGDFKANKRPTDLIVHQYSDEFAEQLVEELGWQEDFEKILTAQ

The IC50 is the concentration that gives 50% inhibition. A word on the Ki: it is a dissociation constant, usually derived from enzyme kinetics or from competition with a known ligand.

Test [1] deals with T1, full-length human SIRT1 (Homo sapiens, UniProt Q96EB6).
T1 sequence (Q96EB6 1-747): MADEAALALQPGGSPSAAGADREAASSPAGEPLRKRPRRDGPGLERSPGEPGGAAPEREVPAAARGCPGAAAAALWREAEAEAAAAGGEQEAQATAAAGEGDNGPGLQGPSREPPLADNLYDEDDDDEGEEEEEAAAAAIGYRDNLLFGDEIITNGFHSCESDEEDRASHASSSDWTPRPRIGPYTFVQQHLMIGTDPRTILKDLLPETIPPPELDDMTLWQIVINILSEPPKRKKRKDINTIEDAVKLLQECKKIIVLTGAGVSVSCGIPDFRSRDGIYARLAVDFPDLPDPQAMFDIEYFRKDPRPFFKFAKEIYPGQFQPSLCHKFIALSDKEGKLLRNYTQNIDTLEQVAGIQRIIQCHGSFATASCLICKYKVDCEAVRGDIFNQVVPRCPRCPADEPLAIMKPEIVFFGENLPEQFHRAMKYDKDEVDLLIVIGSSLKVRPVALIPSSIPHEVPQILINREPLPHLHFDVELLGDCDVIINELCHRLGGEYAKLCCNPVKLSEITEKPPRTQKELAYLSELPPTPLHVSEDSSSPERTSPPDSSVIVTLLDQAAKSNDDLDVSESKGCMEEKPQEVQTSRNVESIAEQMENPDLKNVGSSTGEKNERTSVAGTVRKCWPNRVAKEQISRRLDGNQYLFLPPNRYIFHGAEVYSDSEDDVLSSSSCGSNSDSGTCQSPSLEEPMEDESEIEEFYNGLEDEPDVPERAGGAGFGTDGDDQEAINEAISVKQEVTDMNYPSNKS
In words: IC50 determination, fluorigenic deacetylase assay, FL SIRT1. Particulars: read-out: SIRT1 IC50; Table 5; 240 μM NAD+, 200 μM substrate, 1 μM FL SIRT1, 15 min.

Test [2] deals with T2, Hst2 (Saccharomyces cerevisiae, UniProt P53686). In words: IC50 determination, fluorigenic deacetylase assay, Hst2.
Test [3] concerns the target T2, Hst2. Briefly: SAR analysis, fluorigenic assay at 50 and 500 μM. The test is classed as biochemical. Particulars: Table 7, 50 μM compound, relative to control. From the text:
Structure Activity Relationship (SAR) Analysis.

Test [4] addresses T2, Hst2. In words: Competition assay (inhibition mode versus NAD+ and acetyl-lysine substrate). The test is classed as biochemical. As for the experimental part: Competition Assay. […] The fluorigenic assay described above was used with a fixed enzyme concentration of 1 μM. When competition with NAD^+ was being tested, the FLUOR DE LYS-SIRT1 deacetylase substrate was held at a constant concentration of 100 μM and the NAD^+ was titrated from ⅓-5× KmNAD+ (5-80 μM). When competition with the FLUOR DE LYS-SIRT1 deacetylase substrate was being tested, the NAD^+ concentration was held constant at 160 μM and the FLUOR DE LYS-SIRT1 deacetylase substrate was titrated from ⅓-5× the Kmacetyl-lysine (3-50 μM). The inhibitors were titrated from ˜½-several times their estimated Ki as indicated. The reaction time was 15 minutes, and each condition was tested in duplicate. The Km, kcat and kcat/Km values were determined by direct fit of the data in SIGMAPLOT (Systat Software, Point Richmond, Calif.) to the Michealis-Menten equation. The Ki and Kis (the slope and intercept inhibition constants, respectively) and the competition type were also determined by a direct fit in SIGMAPLOT to both partial and full competitive, noncompetitive, uncompetitive and mixed competition models. Best-fit models were determined by several statistical methods including R^2, AICs and Sy.x as well as empirical evaluation of α and β values. […]

Some results are limits rather than exact numbers.

On to `Cn1cc(C2=C(c3cn(CCCSC(=N)N)c4ccccc34)C(=O)NC2=O)c2ccccc21` [Ro 31-8220 (6), Ro 31-8220, reference compound], for which the IC50 in test [1] stood at 25 ± 7 µM.

For `COCC#CC1c2cc(O)c(OC)cc2CCN1C` (stereo not shown) [Compound 15a, 6-Methoxy-1-(3-methoxy-prop-1-ynyl)-2-methyl-1,2,3,4-tetrahydro-isoquinolin-7-ol], the “IC50 values (range in words)” value in test [2] is recorded as “mid-micromolar range”. In addition, the IC50 in test [2] (read-out: Hst2 IC50, Table 5, 160 μM NAD+, 100 μM substrate, 1 μM Hst2, 15 min) came out at 130 ± 4 µM. This compound also had an activity at 50 µM in test [3] of 76%. Also, the Ki in test [4] (substrate NAD+ varied) amounted to 42 ± 17 µM; in test [4] (substrate acetyl-lysine varied), 43 ± 8 µM.

`O=C1CCc2c(ccc3ccccc23)O1` [Splitomycin (3), Splitomycin, reference compound]: the 50% inhibitory concentration (IC50) in test [1] is > 500 µM.
